This note sets out measurements from patent US8569472B2, “Efficient cell culture system for hepatitis C virus genotype 6A” (priority 2007, dated 2013).

For the assay, the system named is JFH1-based recombinants of genotypes 1a, 1b, 2a, 2b, and 6a. The format is cell-based, hepatitis C virus. Particulars: 500 IU/mL interferon-α2b, 20 μM ribavirin or 50 μM amantadine.

Regarding interferon-α2b, the “antiviral effect of treatment (infected cells and supernatant HCV RNA titers)” value was “antiviral effect”. For the same substance, the “decrease in supernatant HCV RNA titers” value (72 hrs, Huh7.5 cultures infected with genotype 1a/1b, 2a/2b and 6a recombinants) was around 2 log.
